A selection: hits, their analogues and other compounds. The true share with any hit is near 3.7%.
Nrf2 block: inhibitors of Nrf2 signaling. A549 ARE-Fluc reporter, luciferase luminescence, 18-24 h. Potency, µM (top dose mostly 46 µM), actives largely listed as inhibitors. 360,000 tested, 2.1% active; also: nearly all actives have a fitted effect of over 60% in size
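Quantitative HTS in A549 cells stably bearing an antioxidant response element-firefly luciferase construct. Inhibition of Nrf2-driven transcription was scored by luminescence after 18-24 h of compound exposure at 37 °C.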
p53 reactivation: restores transcriptional activity of mutant p53. H1299 p53-A138V BP100-luciferase reporter, luminescence, 24 h. Potency, µM (titrated, usually from 92.2 µM), actives largely listed as activators. 320,000 tested, 0.063% active; also: nearly all actives have a fitted effect of over 45% in size
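H1299 (p53-null), stable ts p53-A138V + BP100-Luc; 1000 cells/well, Opti-MEM/10% FBS; cpd 4 pt, 1:5; 24 h, 37 deg C, 5% CO2; detection reagent 10 min RT; luminescence.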
Nrf2 ARE act: activates Nrf2 signaling; AREc32 ARE-luciferase reporter (MCF7-derived line), luminescence, 24 h; AID 624171; 410,000 tested, 0.31% active; Potency, µM (titrated, usually from 46.1 µM), most hits filed as activators; also: nearly all actives have a fitted effect of over 65% in size
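Cells of the AREc32 ARE-luciferase line are plated in OPTI-MEM containing 5% FBS and left overnight at 37 deg C. Compounds are pinned in, incubation continues 24 hr, and firefly luciferase signal is then measured.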
miR-21 reporter: miR-21 reporter, rising signal; HeLa miR-21 FLuc reporter, luciferase, 48 h; Potency, µM (highest dose often 38.3 µM); 340,000 tested, under 10 active; AID 2288; active = well fitted rising curve with a large enough effect; inconclusive = small, poorly fitted or top-dose-only effect; inactive = no such curve, though single readings can be large or run the other way;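 further: miR-21 action dims this reporter so a rising signal means less miR-21 action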
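HeLa miR-21-FLuc reporter line, endogenous miR-21; 2000 cells/well in DMEM/10% FBS; compound titration up to ~40uM final, 48 h, 37 degree Celsius; luciferase detection reagent, 15 min lysis, CCD luminescence.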
ClpP mod: qHTS Assay for Activators of ClpP | purified B. subtilis ClpP, FRET peptide cleavage, 20 min | Potency, µM (doses to about 57.5 µM) | AID 651965, 2013 | 340,000 tested, 1.9% active; active = well fitted falling curve with a large enough effect; inconclusive = small, poorly fitted or top-dose-only effect; inactive = no such curve, though single readings can be large or run the other way; also: the source files actives as falling curves though it sought activators and does not explain the sign; nearly all actives have a fitted effect of over 65% in size
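FRET quenching reversal measured ClpP activation: 10 microg/mL B. subtilis ClpP at pH 8 with the FRET-FV decapeptide, read at 430 nm after 320 nm excitation. The 20-min minus 0-min signal was scaled between DMSO/no-enzyme wells and ADEP (5.8 microM final).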
A549 tox: kills or reduces viability of A549 cells in Nrf2 counter-screen; A549 ARE-Fluc cells, CellTiter-Fluor viability, 18-24 h; Potency, µM (doses to about 46 µM), most hits filed as inhibitors; 390,000 tested, 0.16% active
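A549 ARE-Fluc cells in 5% FBS OPTI-MEM, 5000 cells/well, rested 2 h then exposed to compounds in concentration-response for 18-24 h at 37 °C. Viability by CellTiter-Fluor fluorescence (Ex 405/Em 525) after 30 min; luciferase luminescence (BugLite, 15 min, RT) read afterwards.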
A number is an active result; 0 = inactive; ? = inconclusive; - = not tested or not shown. Unless noted, calls follow the shape of the dose curve; as a rule, active = well fitted curve in the direction sought with a large enough effect; inconclusive = small, poorly fitted or top-dose-only effect, or another doubt; inactive = no such curve, though single readings can be large; an effect the other way counts as inactive or inconclusive.

SMILES	Nrf2 block	p53 reactivation	Nrf2 ARE act	miR-21 reporter	ClpP mod	A549 tox
COc1ccccc1C(C)NCC(=O)Nc1ccccc1C(F)(F)F (stereo not given)	0	0	0	0	18µM	0
CCC(=O)C1=C(O)C(c2cccc(Oc3ccccc3)c2)CCC1=O (stereo not given)	15µM	0	0	0	0	?
COc1ccc(-c2ccccc2C2C3C=CCCC3(C)C(=O)N2Cc2ccccc2)cc1 (stereo not given)	?	-	-	-	-	0
Cc1csc2c(N3CCN(C(=O)c4ccc(C(C)(C)C)cc4)CC3)ncnc12	0	0	0	0	0	0
Cc1csc2c(N3CCN(C(=O)NC(C)(C)C)CC3)ncnc12	18µM	0	0	0	-	0
O=C(Nc1ccc(Cl)c(Cl)c1)N1CCSCC1	0	0	0	0	0	0
Cc1csc2c(N3CCN(C(=O)Nc4ccc(Cl)c(Cl)c4)CC3)ncnc12	21µM	0	0	0	-	0
COc1ccc(CCNc2nc(SCc3ccccc3F)nc3ccccc23)cc1OC	-	-	0	0	0	0
COc1ccc(CCNC(=O)C2CCC(=O)N(CC3CCCCC3)C2)cc1 (stereo not given)	0	-	0	0	32µM	0
COCCCNc1nc2ccccc2nc1NS(=O)(=O)c1ccc(C)c(C)c1	0	0	0	0	-	0
COCCNc1nc2ccccc2nc1NS(=O)(=O)c1ccc(C)cc1C	0	0	0	0	28µM	0
COc1ccc(/C=N/NC(=O)c2ccccc2OC)cc1COc1ccc(C)cc1	0	0	0	0	25µM	0
COc1ccc(/C=N/NC(=O)c2ccoc2C)cc1COc1ccc(Cl)cc1	13µM	-	0	0	0	0
COc1ccc(/C=N/NC(=O)c2ccoc2C)cc1OC	0	0	0	0	0	0
CC(C)(C)OC(=O)NCc1nnc(-c2cc3ccccc3[nH]2)o1	?	-	-	-	-	0
O=C1CCC2=C1C(c1ccccc1Cl)N=C(Nc1nc3ccccc3o1)N2 (stereo not given)	0	-	-	-	-	0
CC(=O)NNC(=S)NC(=O)C(c1ccccc1)c1ccccc1	16µM	0	0	0	0	?
CC(C)(C)C(=O)NC(=S)NNC(=O)C(c1ccccc1)c1ccccc1	21µM	0	0	0	0	0
CCNC(=S)NNC(=O)C(c1ccccc1)c1ccccc1	0	0	0	0	0	0
CN(C)C(=S)NC(=O)C(c1ccccc1)c1ccccc1	0	0	0	0	-	0
CCCc1cc(N2CCN(C(=O)c3ccco3)CC2)n2c(nc3ccccc32)c1C#N	?	0	0	0	35µM	0
CCOC(=O)[C@@H](C)N(C(=O)OC(C)(C)C)S(=O)(=O)N(Cc1ccccc1)[C@@H](C(=O)OC)C(C)C	-	-	-	-	0	-
O=S1(=O)N(Cc2ccccc2F)CCCN1Cc1c(F)cccc1Cl	0	0	0	0	32µM	0
COc1cc(NC(=O)CSc2nc(=O)n(CCCN3CCOCC3)c3c2CCC3)cc(OC)c1	0	0	0	-	25µM	0
O=C(CSc1nc(=O)n(CCN2CCOCC2)c2c1CCC2)Nc1ccc(OC(F)(F)F)cc1	18µM	0	0	-	-	0
SMILES	Nrf2 block	p53 reactivation	Nrf2 ARE act	miR-21 reporter	ClpP mod	A549 tox
COc1ccc(NC(=O)CSc2nc(=O)n(CCN3CCOCC3)c3c2CCC3)cc1	0	0	0	-	0	0
Cc1c(Cl)cccc1NC(=O)CSc1nc(=O)n(CCCN2CCOCC2)c2c1CCC2	0	0	0	-	20µM	0
Cc1c(C(=O)NCCc2ccccc2)cccc1-n1cnc2cccnc21	?	-	0	0	0	0
CCn1c2c(c(=O)n3ncc(C(=O)Nc4cc(Cl)ccc4OC)c13)CN(Cc1ccc(OC)cc1)CC2	-	-	0	0	32µM	0
O=C(NCCC1=CCCCC1)c1ccc2c(c1)N(Cc1ccc(Cl)cc1)C(=O)c1ccccc1S2(=O)=O	0	-	0	0	0	0
CSc1ccc(CCNC(=O)c2csc3c2CCCCC3)cc1	0	-	0	0	0	0
Cc1ccccc1N(CC(=O)N/N=C/c1ccc(F)cc1)C(=O)c1ccccc1	0	0	0	0	0	0
Cc1ccccc1N(CC(=O)N/N=C/c1ccc(Cl)cc1)C(=O)c1ccccc1	21µM	0	0	0	0	?
CCOc1ccc(N2C(=O)CS(=O)(=O)C23C(=O)N(Cc2cccc(Cl)c2)c2ccccc23)cc1 (stereo not given)	0	-	0	0	0	0
Cc1cc(NC(=O)CSc2ncnc3sccc23)no1	0	0	0	0	-	0
N#Cc1c(NC(=O)CSc2ncnc3sccc23)oc(-c2ccco2)c1-c1ccco1	0	0	10µM	0	0	0
CC(C)(C)n1nnnc1CN(Cc1ccco1)Cc1cc2cc3c(cc2[nH]c1=O)OCO3	-	0	0	0	28µM	0
CCOc1ccc2[nH]c(=O)c(CN(Cc3ccco3)Cc3nnnn3Cc3ccccc3)cc2c1	0	0	0	0	?	0
COc1ccc2cc(CN(Cc3ccco3)Cc3nnnn3C3CCCCC3)c(=O)[nH]c2c1	?	0	0	0	0	?
CCC(C)(C)n1nnnc1CN(Cc1ccco1)Cc1cc2cc3c(cc2[nH]c1=O)OCO3	0	0	0	0	32µM	0
COCCn1nnnc1CN(Cc1ccco1)Cc1cc2cc3c(cc2[nH]c1=O)OCO3	0	0	0	0	28µM	0
CCC(C)(C)n1nnnc1CN(Cc1ccc(Cl)cc1)Cc1ccco1	?	0	0	0	0	0
COc1ccc2[nH]c(=O)c(CN(Cc3ccco3)Cc3nnnn3Cc3ccccc3)cc2c1	0	0	?	0	25µM	0
CCN(CC)c1ccc(NC(=O)c2cnn3c(C(F)F)cc(-c4ccccc4)nc23)cc1	0	-	0	0	0	0

Screening data deposited in PubChem by National Center for Advancing Translational Sciences (NCATS).
